miR-21 reporter: raises the signal of a miR-21 reporter | Potency, µM (doses to about 38.3 µM) | HeLa miR-21 FLuc reporter, luciferase, 48 h | AID 2288 | 340,000 tested, under 10 active; active = well fitted rising curve with a large enough effect; inconclusive = small, poorly fitted or top-dose-only effect; inactive = no such curve, though single readings can be large or run the other way;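 also: miR-21 action dims this reporter so a rising signal means less miR-21 action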
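Using DMEM plus 10% FBS, HeLa miR-21-FLuc cells are incubated with test compounds (final up to about 40uM) for 48 hours; firefly luciferase signal is then imaged following reagent-mediated lysis.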
p53 reactivation: re-activators of mutant p53; H1299 p53-A138V BP100-luciferase reporter, luminescence, 24 h; Potency, µM (top dose mostly 92.2 µM), usual class: activators; hit rate 0.063% among 320,000; AID 504706; further: nearly all actives have a fitted effect of over 45% in size
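p53-null H1299 cells stably carrying temperature-sensitive p53-A138V and a BP100-luciferase reporter were pinned with compounds (4-point, 1:5 series) and held 24 hrs at 37 deg C. Luminescence was read 10 min after detection reagent.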
Nrf2 ARE act: activators of Nrf2 (ARE) signaling; AID 624171; Potency, µM (highest dose often 46.1 µM), most hits filed as activators; AREc32 ARE-luciferase reporter (MCF7-derived line), luminescence, 24 h; hit rate 0.31% among 410,000; further: nearly all actives have a fitted effect of over 65% in size
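Luminescent ARE reporter assay in AREc32_Fluc cells: overnight plating at 37 deg C, 24 hr compound incubation, Steady-Glo added, 30 min RT before reading.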
Nrf2 block: blocks Nrf2 signaling | A549 ARE-Fluc reporter, luciferase luminescence, 18-24 h | Potency, µM (doses to about 46 µM), most hits filed as inhibitors | hit rate 2.1% among 360,000; further: nearly all actives have a fitted effect of over 60% in size
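Reporter: ARE-Fluc in A549. Exposure: 18-24 h, 37 °C, 5% CO2, 5% FBS OPTI-MEM. Readouts: fluorescent cytotoxicity (CellTiter-Fluor), then luminescent Nrf2 signal after BugLite.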
A549 viability: kills or reduces viability of A549 cells in Nrf2 counter-screen | Potency, µM (highest dose often 46 µM), usual class: inhibitors | A549 ARE-Fluc cells, CellTiter-Fluor viability, 18-24 h | hit rate 0.16% among 390,000 | AID 504648
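A549 ARE_Fluc cells in 5% FBS OPTI-MEM were exposed to compounds in concentration-response for 18-24 h at 37 deg C. Viability was read by CellTiter-Fluor fluorescence (Ex 405/Em 525) after 30 min, before the luciferase read.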
ClpP mod: qHTS Assay for Activators of ClpP. ATP-dependent Clp protease proteolytic subunit (Bacillus subtilis (strain 168)), P80244. purified B. subtilis ClpP, FRET peptide cleavage, 20 min. Potency, µM (top dose mostly 57.5 µM). hit rate 1.9% among 340,000. AID 651965, 2013; active means well fitted falling curve with a large enough effect; inconclusive means small, poorly fitted or top-dose-only effect; inactive means no such curve, though single readings can be large or run the other way; further: the source files actives as falling curves though it sought activators and does not explain the sign; nearly all actives have a fitted effect of over 65% in size
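FRET quenching reversal measured ClpP activation: 10 microg/mL B. subtilis ClpP at pH 8 with the FRET-FV decapeptide, read at 430 nm after 320 nm excitation. The 20-min minus 0-min signal was scaled between DMSO/no-enzyme wells and ADEP (5.8 microM final).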
Large screens that a line does not name were inactive. Most compounds without a hit are left out; they make up all but 3.7% or so of the library. Unless noted, the call rests on the fitted dose curve; in most records, active means well fitted curve in the direction sought with a large enough effect; inconclusive means small, poorly fitted or top-dose-only effect, or another doubt; inactive means no such curve, though single readings can be large; an effect the other way counts as inactive or inconclusive.

Chains of the proteins cited; added tags and fusions are not shown.
ATP-dependent Clp protease proteolytic subunit (Bacillus subtilis (strain 168)), P80244, UniProt P80244, whole entry, looked up: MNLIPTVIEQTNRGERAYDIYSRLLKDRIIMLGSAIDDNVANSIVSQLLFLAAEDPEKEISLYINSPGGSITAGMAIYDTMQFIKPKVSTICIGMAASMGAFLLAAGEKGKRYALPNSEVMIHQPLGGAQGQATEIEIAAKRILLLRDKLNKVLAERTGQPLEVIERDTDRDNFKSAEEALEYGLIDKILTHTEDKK

CNc1oc(-c2ccccc2F)nc1S(=O)(=O)c1ccc(C)cc1	Nrf2 block 25.9µM, ClpP mod 10µM
Cc1ccc(S(=O)(=O)c2nc(-c3ccccc3Cl)oc2N2CCN(C)CC2)cc1	none (no result: miR-21 reporter)
O=S(=O)(c1ccccc1)c1nc(-c2ccc(F)cc2)oc1N1CCCCCC1	Nrf2 block 25.9µM (no result: p53 reactivation)
CC(=O)c1cccc(NC(c2ccc(F)cc2)c2nnc(-c3ccccc3)o2)c1 (stereo not given)	none (no result: p53 reactivation, Nrf2 block)
Cc1ccccc1-c1noc(-c2cc(C(C)C)[nH]n2)n1	none (no result: p53 reactivation)
O=C(NCc1noc2ccccc12)Nc1ccc(F)cc1F	none (no result: p53 reactivation, Nrf2 block)
COc1ccc(C(=O)c2sc(NC(C)C)nc2N)cc1OC	p53 reactivation inconclusive, A549 viability inconclusive, ClpP mod 25.1µM (no result: Nrf2 block)
COc1cccc(C(=O)c2sc(NC(C)C)nc2N)c1	p53 reactivation inconclusive, A549 viability inconclusive (no result: Nrf2 block)
CS(=O)(=O)N1CCc2cc(C(=O)Nc3ccc(Cl)c(C(F)(F)F)c3)ccc21	miR-21 reporter inconclusive, Nrf2 block 20.6µM, ClpP mod inconclusive (no result: p53 reactivation)
CS(=O)(=O)N1CCc2cc(C(=O)Nc3ccc(C(F)(F)F)cc3)ccc21	Nrf2 block inconclusive, A549 viability inconclusive (no result: p53 reactivation)
Cc1ccc(C)c(N2CCN(C(=O)CCS(=O)(=O)c3ccc4c(c3)NC(=O)CO4)CC2)c1	miR-21 reporter inconclusive, Nrf2 block 8.2µM
CC(=O)N1CCc2cc(S(=O)(=O)CCC(=O)O)ccc21	ClpP mod 31.6µM (no result: Nrf2 block)
CCOC(=O)C1CCN(C(=O)CCS(=O)(=O)c2ccc3c(c2)CCN3C(=O)CC)CC1	ClpP mod 20µM
CCCc1ccc(S(=O)(=O)N2CCC(Oc3ccc(-n4cnnn4)cc3)CC2)cc1	Nrf2 block inconclusive (no result: p53 reactivation)
CCc1c(C)c2ccc3c(c2oc1=O)CN(Cc1ccccc1)CO3	none (no result: p53 reactivation)
Cc1ccc(Cn2ccnc2SCC(=O)Nc2nc3ccccc3s2)cc1	none (no result: p53 reactivation, Nrf2 block)
Cc1ccc(C)c(N2CCN(C(=O)CCS(=O)(=O)c3ccc4c(c3)CCN4C(=O)C3CC3)CC2)c1	Nrf2 block 25.9µM
CN1C(=O)Cc2cc(S(=O)(=O)CCC(=O)Nc3ccc(Cl)c(C(F)(F)F)c3)ccc21	none (no result: p53 reactivation)
CCC(=O)N1CCc2cc(S(=O)(=O)CCC(=O)Nc3ccc(Cl)c(C(F)(F)F)c3)ccc21	miR-21 reporter inconclusive, Nrf2 block 20.6µM (no result: p53 reactivation)
Cc1cc(C)n(CC(=O)NNC(=O)COc2ccc(F)cc2Br)n1	none (no result: miR-21 reporter)
Cc1nn(C)c(C)c1NC(=O)COc1ccc(F)cc1Br	Nrf2 block 23.1µM (no result: miR-21 reporter, ClpP mod)
Cc1ccc(/C=C/c2nnc(-c3cccs3)o2)cc1	Nrf2 block inconclusive, ClpP mod 8.91µM
Cc1csc2c(N3CCN(C(=S)Nc4ccc(C(F)(F)F)cc4)CC3)ncnc12	Nrf2 block inconclusive
Cc1csc2ncnc(N3CCN(C(=S)Nc4ccc(C(F)(F)F)cc4)CC3)c12	Nrf2 block 25.9µM
CC(C)(C)OC(=O)N[C@@H](Cc1ccccc1)c1nnc(SCC(=O)O)o1	none
CC(C)(C)OC(=O)N[C@@H](Cc1ccccc1)c1nnc(SCC(=O)c2ccc(Cl)cc2)o1	Nrf2 block 25.9µM
Cc1ccccc1CS(=O)(=O)c1nnc([C@H](Cc2ccccc2)NC(=O)OC(C)(C)C)o1	miR-21 reporter inconclusive, Nrf2 block 23.1µM
COc1ccc(-c2nc3sc(CCNC(=O)c4ccco4)c(C)n3n2)cc1	none (no result: p53 reactivation, Nrf2 block)
Cc1c(C(=O)NCc2ccoc2)oc2ccc3c(c12)C(=O)CC(C)(C)O3	p53 reactivation inconclusive, Nrf2 block inconclusive, ClpP mod 28.2µM
CC(=O)Nc1ccc(S(=O)(=O)N2CCN=C2SCc2ccc([N+](=O)[O-])cc2)cc1	Nrf2 block 8.2µM
CC(=O)Nc1ccc(S(=O)(=O)N2CCN=C2SCc2cccc(C)c2)cc1	Nrf2 block inconclusive
COc1ccc(-c2nc3c(C#N)c[nH]n3c2NC2CCCCC2)c(OC)c1	Nrf2 block inconclusive (no result: p53 reactivation)
Cc1cc2cc(C#N)c(N3CCN(S(C)(=O)=O)CC3)nc2cc1C	Nrf2 block inconclusive, ClpP mod 20µM
Cc1cc(C)c2cc(C#N)c(N3CCCC3)nc2c1	ClpP mod 25.1µM
Cc1ccc(S(=O)(=O)N2CCCN(c3nc4cc(C)ccc4cc3C#N)CC2)cc1	Nrf2 block inconclusive, ClpP mod inconclusive
COc1ccc(C(=O)N2CCCC(c3cc(C(=O)NCc4ccc(F)cc4)no3)C2)cc1 (stereo not given)	none (no result: miR-21 reporter, p53 reactivation, Nrf2 block, A549 viability)
CC(=O)NC1=CC(=O)c2nonc2C1=O	Nrf2 block 2.91µM, A549 viability 7.31µM, ClpP mod inconclusive (no result: miR-21 reporter, p53 reactivation, Nrf2 ARE act)
O=C(NCc1cccs1)Nc1ccc(Cl)cc1	p53 reactivation inconclusive, ClpP mod 20µM (no result: Nrf2 block)
CC(Cc1cccs1)NC(=S)Nc1ccc(Cl)cc1 (stereo not given)	p53 reactivation inconclusive, Nrf2 block 18.4µM (no result: ClpP mod)
Cc1cc(/C=C/c2ccnc3ccccc23)ccc1N	none (no result: miR-21 reporter, p53 reactivation, Nrf2 ARE act, Nrf2 block, A549 viability)
O=S(=O)(c1ccc(Cl)s1)N1CCN(C/C=C/c2ccccc2)CC1	Nrf2 block 10.3µM
COc1ccc(CN(C)C(=O)CCNS(=O)(=O)c2ccccc2)c(OC)c1	none (no result: miR-21 reporter, p53 reactivation, Nrf2 block, A549 viability)
CCc1ccc(C2NC(=O)c3[nH]nc(-c4cccc(OC)c4)c32)cc1 (stereo not given)	Nrf2 block 7.31µM (no result: p53 reactivation)
CCOc1ccc(C2NC(=O)c3n[nH]c(C)c32)cc1 (stereo not given)	none

High-throughput results: PubChem BioAssay, National Center for Advancing Translational Sciences (NCATS)
